The values that follow come from PMC10958515 (ACS Chemical Neuroscience, 2024).

Sequences of proteins named here, by UniProt entry; tags and fusion partners are left off.
UniProt Q9UQD0, whole entry: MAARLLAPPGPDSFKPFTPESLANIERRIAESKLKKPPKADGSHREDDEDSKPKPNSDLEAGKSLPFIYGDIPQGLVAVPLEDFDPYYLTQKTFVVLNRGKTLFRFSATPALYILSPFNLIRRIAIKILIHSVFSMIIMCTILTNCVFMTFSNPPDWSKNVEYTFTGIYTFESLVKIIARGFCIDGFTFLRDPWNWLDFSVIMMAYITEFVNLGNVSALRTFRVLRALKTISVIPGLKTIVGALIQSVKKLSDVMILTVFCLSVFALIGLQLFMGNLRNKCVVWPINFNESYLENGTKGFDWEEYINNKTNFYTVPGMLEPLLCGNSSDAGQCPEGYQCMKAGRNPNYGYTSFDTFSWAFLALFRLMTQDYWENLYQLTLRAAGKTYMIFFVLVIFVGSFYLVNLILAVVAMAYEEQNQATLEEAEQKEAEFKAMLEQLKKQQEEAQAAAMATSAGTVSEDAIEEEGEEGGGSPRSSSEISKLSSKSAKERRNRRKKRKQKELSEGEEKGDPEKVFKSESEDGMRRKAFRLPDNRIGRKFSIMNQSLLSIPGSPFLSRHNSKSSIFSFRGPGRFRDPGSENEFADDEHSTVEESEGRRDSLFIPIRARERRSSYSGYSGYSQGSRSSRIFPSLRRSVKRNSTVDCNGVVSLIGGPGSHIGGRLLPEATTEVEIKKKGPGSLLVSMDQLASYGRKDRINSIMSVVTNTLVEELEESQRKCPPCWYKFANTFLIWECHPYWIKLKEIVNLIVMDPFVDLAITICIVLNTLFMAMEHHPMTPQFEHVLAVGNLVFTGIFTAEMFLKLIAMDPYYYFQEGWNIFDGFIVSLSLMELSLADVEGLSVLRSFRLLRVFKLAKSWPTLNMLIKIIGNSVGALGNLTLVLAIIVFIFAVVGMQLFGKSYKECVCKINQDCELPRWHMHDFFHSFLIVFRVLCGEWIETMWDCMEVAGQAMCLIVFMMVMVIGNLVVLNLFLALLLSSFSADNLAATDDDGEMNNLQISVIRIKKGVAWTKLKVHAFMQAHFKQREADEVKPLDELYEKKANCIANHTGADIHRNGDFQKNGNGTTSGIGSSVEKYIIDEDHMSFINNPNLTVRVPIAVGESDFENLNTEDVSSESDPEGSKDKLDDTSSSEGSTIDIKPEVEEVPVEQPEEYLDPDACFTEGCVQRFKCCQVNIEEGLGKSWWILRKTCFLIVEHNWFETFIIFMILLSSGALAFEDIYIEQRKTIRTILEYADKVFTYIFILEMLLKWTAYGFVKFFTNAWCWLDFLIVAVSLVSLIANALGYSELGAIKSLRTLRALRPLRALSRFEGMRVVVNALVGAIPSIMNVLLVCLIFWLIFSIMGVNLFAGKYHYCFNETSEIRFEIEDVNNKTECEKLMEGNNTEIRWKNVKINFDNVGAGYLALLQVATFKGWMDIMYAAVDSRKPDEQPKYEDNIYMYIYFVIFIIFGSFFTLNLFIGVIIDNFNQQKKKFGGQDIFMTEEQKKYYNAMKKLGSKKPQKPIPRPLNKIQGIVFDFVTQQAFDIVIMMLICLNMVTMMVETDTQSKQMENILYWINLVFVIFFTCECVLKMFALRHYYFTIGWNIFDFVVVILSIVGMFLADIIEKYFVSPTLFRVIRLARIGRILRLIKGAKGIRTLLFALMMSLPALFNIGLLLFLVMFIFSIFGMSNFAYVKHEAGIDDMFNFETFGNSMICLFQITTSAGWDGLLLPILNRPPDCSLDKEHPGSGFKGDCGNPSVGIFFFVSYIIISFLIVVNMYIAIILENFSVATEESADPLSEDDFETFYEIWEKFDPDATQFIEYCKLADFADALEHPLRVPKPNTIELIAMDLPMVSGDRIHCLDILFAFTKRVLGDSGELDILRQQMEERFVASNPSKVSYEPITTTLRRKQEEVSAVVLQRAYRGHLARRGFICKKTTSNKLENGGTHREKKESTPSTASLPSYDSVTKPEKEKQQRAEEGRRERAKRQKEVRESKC

Structures are written as SMILES.

The target in the test is NaV1.6 (Homo sapiens, UniProt Q9UQD0). The test can be described thus: Kinetics of compound equilibration at V0.5 holding potential. Format: cell-based. The method in brief: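 Qube automated patch clamp on cells expressing human NaV1.6, 27 °C, CsF-based internal and 140 mM NaCl external solution. Cells are held at their empirically derived V0.5 for 100 s while inhibition is tracked. Observed rates come from single-exponential fits. Kobs is plotted against concentration and fitted with a straight line (Kobs = kon·[CPD] + koff) to give kon.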

What is called kon is a measure of how fast the partners come together. As for `NC(=O)N1c2ccccc2C=Cc2ccccc21` [carbamazepine], the kon came out at 32800 M⁻¹ s⁻¹.
